Test [1] addresses T1, TRKB (Homo sapiens, UniProt Q16620).
T1 construct: purchased life technologies PV3616
The test is described as follows: Z′-LYTE kinase activity assay, TRKB. Format: biochemical. The text has this:
Kinase activity assay: Z′-LYTE™ technology (detection by fluorescence, enzyme-conjugated format, based on the difference in sensitivity of phosphorylated and non-phosphorylated peptides to proteolytic cleavage) was applied, and using the principle of fluorescence resonance energy transfer (FRET), a Z′-LYTE™ FRET peptide substrate (Z′-LYTE™ Tyrosine 1 Peptide Substrate, Invitrogen, PV3190), and a secondary reaction were used to detect the inhibitory activity of the compounds on TRKs (TRK1, TRK2, TRK3) (life technologies, PV3144, PV3616, PV3617).
Enzymatic reaction: In a 384-well plate, 5 μL of an enzyme-substrate system (50 mM HEPES pH 7.5, 0.01% BRIJ-35, 10 mM MgCl2, 1 mM EGTA, 2 μM Tyr 01 Peptide Substrate) was added and 5 nL of compound (concentration gradient) was transferred thereto by using the echo520 ultramicro liquid pipetting system. […] After shaking and mixing, centrifuging was performed. A reaction was carried out at 30° C. in the dark for 1.5 hours.
The data were analyzed as follows:
Phosphorylation ratio=1−{(emission ratio×F100%−C100%)/[C0%−C100%+emission ratio×(F100%−F0%)]}×100;
Inhibition rate=100×(1−compound phosphorylation ratio/negative control phosphorylation ratio).
IC50 values were calculated by using GraphPad Prism 5.0 software.

Sequences of proteins named here, by UniProt entry; tags and fusion partners are left off. Residues count along the entry.
UniProt Q16620, 32-822: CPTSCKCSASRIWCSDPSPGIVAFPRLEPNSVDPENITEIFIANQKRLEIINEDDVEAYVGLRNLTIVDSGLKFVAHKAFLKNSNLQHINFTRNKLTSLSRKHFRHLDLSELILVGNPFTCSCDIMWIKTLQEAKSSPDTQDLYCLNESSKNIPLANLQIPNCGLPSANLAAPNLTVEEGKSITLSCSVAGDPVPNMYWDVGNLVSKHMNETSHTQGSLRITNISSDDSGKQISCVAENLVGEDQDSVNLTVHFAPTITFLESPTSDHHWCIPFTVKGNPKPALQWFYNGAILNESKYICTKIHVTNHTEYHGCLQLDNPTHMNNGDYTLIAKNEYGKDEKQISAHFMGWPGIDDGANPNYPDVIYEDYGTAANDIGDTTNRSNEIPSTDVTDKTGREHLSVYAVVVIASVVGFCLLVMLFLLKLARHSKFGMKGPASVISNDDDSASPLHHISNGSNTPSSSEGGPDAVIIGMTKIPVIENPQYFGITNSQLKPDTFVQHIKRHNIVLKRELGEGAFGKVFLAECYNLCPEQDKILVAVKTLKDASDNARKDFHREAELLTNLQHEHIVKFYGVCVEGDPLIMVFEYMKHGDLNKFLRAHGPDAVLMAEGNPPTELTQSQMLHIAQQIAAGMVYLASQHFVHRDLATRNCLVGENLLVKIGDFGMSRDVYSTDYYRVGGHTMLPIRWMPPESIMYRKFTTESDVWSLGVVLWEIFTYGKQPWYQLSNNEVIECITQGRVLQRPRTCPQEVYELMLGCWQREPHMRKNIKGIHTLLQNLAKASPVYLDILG
UniProt Q16620, 538-822 limits assumed: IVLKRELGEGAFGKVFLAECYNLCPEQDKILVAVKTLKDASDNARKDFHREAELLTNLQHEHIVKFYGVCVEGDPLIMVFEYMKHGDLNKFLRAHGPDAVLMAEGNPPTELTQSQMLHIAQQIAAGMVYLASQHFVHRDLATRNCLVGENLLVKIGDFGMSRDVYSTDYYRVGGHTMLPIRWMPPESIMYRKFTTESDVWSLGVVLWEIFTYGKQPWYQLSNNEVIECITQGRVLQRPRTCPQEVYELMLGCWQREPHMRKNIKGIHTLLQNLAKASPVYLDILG

The target of test [2] is T2, BaF3-ETV6-NTRK2 (Homo sapiens, UniProt Q16620).
T2 construct: fused on or other part: P41212 (Transcription factor ETV6)
Nature of the test: Cell proliferation inhibition (CCK-8), BaF3-ETV6-NTRK2 stable strain. Format: cell-based, mouse. Particulars: read-out: ETV6-NTRK2 cell activity IC50, BaF3-ETV6-NTRK2, 72 hours. As to the method: The brief steps of stable strain construction are as follows: construct a pCDNA3.1(+) plasmid vector carrying genes such as CD74-NTRK1, ETV6-NTRK2 and ETV6-NTRK3; the plasmid was electroporated into Ba/F3 cells using the Amaxa® Cell Line Nucleofector® Kit V; 48 hours after electroporated, G418 with a final concentration of 1000 μg/ml was added for screening for two weeks, and then IL3 was removed, and continued screening to obtain polyclonal stable strains; then single clones were selected by a limiting dilution method. The stable strains were then identified using positive drugs, WB and gene sequencing; and the monoclonal clones that were identified as completely correct may be used for the study of cell proliferation inhibitory activity of inhibitors.
Cell proliferation inhibition activity study: the cells in the logarithmic growth phase were seeded into 96-well plates at 8000-12000 cells/well, and inhibitors at different concentrations (0-10 μM) were added the next day, and incubation was continued for 72 hours; then 10 μL of CCK-8 reagent was added to each well, and the incubation was continued for 1-3 hours; and then use a super microplate reader to measure their absorbance values at 450 nm and 650 nm. The half-inhibition concentration (IC50) was calculated using GraphPad Prism 8.0.0.

Like-named read-outs stand apart in the source and are kept apart here.

What is called IC50 is the concentration at which inhibition is half-maximal.

`C[C@@H](Nc1ccc2[nH]nc(/C=C/c3ccccn3)c2c1)c1cc(F)cc(F)c1` [DYX-244-1, (R,E)-N-(1-(3,5-difluorophenyl)ethyl)-3-(2-(pyridin-2-yl)vinyl)-1H-indazol-5-amine]: the half-maximal inhibitory concentration (IC50) in test [1] was 4.4 nM; in test [2], 20.3 nM.
Turning to `C[C@H](Nc1ccc2[nH]nc(/C=C/c3ccccn3)c2c1)c1cc(F)cc(F)c1` [DYX-244-2, (S,E)-N-(1-(3,5-difluorophenyl)ethyl)-3-(2-(pyridin-2-yl)vinyl)-1H-indazol-5-amine], the IC50 came out at 22.1 nM in test [1] (Z′-LYTE, ATP 25 uM, read-out: TRKB IC50) and 230 nM in test [2].

Source of the values: patent US20220281821A1, “INDAZOLE COMPOUNDS AND THEIR PHARMACEUTICAL COMPOSITIONS” (Jinan University, priority 2019, published 2022).
